Laboratory results from PubChem BioAssay AID485314 (National Center for Advancing Translational Sciences (NCATS), 2010).
The entries are a selection whose mix differs from that of the whole data set. Results filed as inconclusive are left out. Some structures show a salt or complex split into parts, the way the source records it. The source made the active and inactive calls. The call rests on the fitted dose curve; in most records, active means well fitted inhibition curve with a large enough effect; inconclusive means small, poorly fitted or top-dose-only effect, or another doubt; inactive means no such curve, though single readings can be large or run the other way.

target: DNA polymerase beta (Homo sapiens) (UniProt P06746); experiment: qHTS Assay for Inhibitors of DNA Polymerase Beta; conditions: Pol beta primer extension/strand displacement, fluorescence kinetic; at 114 µM (top of the series)
Excerpt: The base excision repair system in human cells is a target for therapeutic modulation of the response to irradiation treatment and DNA-damaging drugs. A key enzyme in this system is the bi-functional DNA polymerase known as DNA polymerase Beta (Pol Beta). The following is a homogeneous kinetic assay to study the primer extension and strand-displacement reaction catalyzed by pol beta.
A stepwise description of the 1536-well assay is shown in next Table. Three microliters of reagents (buffer in column 3 and 4 as negative control and 10 nM Pol beta in columns 1, 2, and 5-48) was dispensed into 1,536-well black solid-bottomed plate. Compounds (23 nL) were transferred via Kalypsys pin tool equipped with 1536-pin array (10 nL slotted pins, V&P Scientific, San Diego, CA). The plates were incubated for 15 min at room temperature, and 1 uL substrate (50 nM final concentration) were added to start the reaction and immediately read at 0 min read on Viewlux reader. The plate were further incubated for 10 min at room temperature, and then read on Viewlux again. Throughout the screen, reagent bottle and all liquid lines were chilled and made light-tight to minimize reagent degradation. All screening operations were performed on a fully integrated robotic system (Kalypsys, San Diego, CA) containing one RX-130 and two RX-90 anthropomorphic robotic arms (Staubli, Duncan, SC). Library plates were screened starting from the lowest and proceeding to the highest concentration, and a double-dipping step of the highest concentration was required to access higher concentrations of compounds. Vehicle-only plates, with DMSO being pin-transferred to the entire column 5-48 compound area, were inserted uniformly at the beginning and the end of each library in order to monitor for and record any shifts in the background, which can be affected by reagent dispensers or loss in enzyme activity overtime. Screening data were corrected, normalized, and concentration-effect relationships were derived by using publicly-available curve fitting algorithms developed in-house (http://ncgc.nih.gov/pub/openhts). A four parameter Hill equation was fitted to the concentration-response data by minimizing the residual error between the modeled and observed responses.
On the % scale 0 is the no-effect control and ±100 the full control effect.

Compound | activity change, negative = inhibition
c1ccc(CN2CCC(Nc3ccccc3)CC2)cc1 | inactive: 2.76%
O=C(NCC1(N2CCOCC2)CCCCC1)c1ccccc1 | inactive: -5.3%
CCCN1CCC(Nc2cc(OC)cc(OC)c2)CC1 | inactive: 16.2%
CN(C)C1(CNC(=O)c2cccc(C#N)c2)CCCCC1 | inactive: 8.69%
CCOC(=O)C(CC)C1=NC(C)(C)Cc2ccccc21.O=[N+]([O-])c1cc([N+](=O)[O-])c(O)c([N+](=O)[O-])c1 (stereo unspecified) | inactive: 1.51%
O=C(NCC1(N2CCOCC2)CCCCC1)c1ccc([N+](=O)[O-])cc1 | inactive: 1.71%
CC(C)(C)OC(=O)N1CCC(N(C(=O)c2ccccc2)c2ccc(Cl)cc2)CC1 | inactive: -16.5%
O=C(NCC1(N2CCOCC2)CCCCC1)c1ccccc1[N+](=O)[O-] | inactive: -16.6%
N#Cc1ccc(C(=O)NCC2(N3CCCCC3)CCCCC2)cc1 | inactive: 37.7%
O=C(O)c1cccc(Nc2c([N+](=O)[O-])cc([N+](=O)[O-])cc2[N+](=O)[O-])c1 | inactive: 11.9%
N/C(=N\O)c1c(N)no[n+]1[O-] | inactive: 12.6%
CCOC(=O)N1CCC(Nc2ccc(C)cc2)CC1 | inactive: -3.81%
COc1ccc(C(=O)NCC2(N3CCOCC3)CCCCC2)cc1OC | inactive: 0.365%
CCCOc1ccc(C)cc1CN(CCCl)CCCl | inactive: 43.4%
CCC(CO)(C(=O)OC1CN2CCC1CC2)c1ccccc1 (stereo unspecified) | inactive: -1.2%
COc1cccc(C(=O)N(c2cc(C)cc(C)c2)C2CCN(C(=O)OC(C)(C)C)CC2)c1 | inactive: 28.1%
COc1cc(OC)cc(C(=O)NCC2(N3CCOCC3)CCCCC2)c1 | inactive: 5.92%
COc1cc(C(=O)NCC2(N3CCOCC3)CCCCC2)cc(OC)c1OC | inactive: -0.103%
CCCOc1ccc(C(=O)NCC2(N(C)C)CCCCC2)cc1 | inactive: -7.81%
CC(C)(C)OC(=O)N1CCC(Nc2ccccc2)CC1 | inactive: 28.5%
O=C(O)C1(Nc2ccccc2)CCN(Cc2ccccc2)CC1 | inactive: 2.03%
CCOc1ncccc1C(=O)NCC1(N2CCOCC2)CCCCC1 | inactive: -0.534%
CN1CCC(Nc2ccc(F)c(Cl)c2)CC1 | inactive: 8.51%
CC(C)(C)c1ccc(C(=O)NCC2(N3CCOCC3)CCCCC2)cc1 | inactive: -0.875%

Compound | activity change, negative = inhibition
CN(C)c1ccc(C(=O)NCC2(N3CCCCC3)CCCCC2)cc1 | inactive: 3.38%
Cc1ccccc1C(=O)NCC1(N(C)C)CCCCC1 | inactive: 2.41%
CCN1CCC(Nc2cccc(F)c2)CC1 | inactive: 5.59%
Fc1ccccc1NC1CCN(Cc2ccccc2)CC1 | inactive: 6.01%
COc1cc(OC)cc(C(=O)NCC2(N3CCCCC3)CCCCC2)c1 | inactive: 4.17%
CN(C)C1(CNC(=O)c2ccc(C(C)(C)C)cc2)CCCCC1 | inactive: -1.91%
COc1cc(C(=O)NCC2(N(C)C)CCCCC2)ccc1OC(F)F | inactive: 0.523%
CCOC(=O)N1CCC(Nc2cccc(C)c2)CC1 | inactive: -7.39%
Cc1ccc(OCC(C)C)c(CN(CCCl)CCCl)c1 | inactive: -14%
O=C(NCC1(N2CCCCC2)CCCCC1)c1ccc(F)cc1 | inactive: 43.8%
CCOC(=O)N1CCC(Nc2ccc(F)cc2)CC1 | inactive: 10.9%
COc1ccc(NC2CCN(CCc3ccccc3)CC2)c(OC)c1 | inactive: 24.7%
COc1ccccc1C(=O)NCC1(N2CCOCC2)CCCCC1 | inactive: -11.7%
CCOc1ccc(C)cc1CN(CCCl)CCCl | inactive: 33.9%
O=C(NCC1(N2CCOCC2)CCCCC1)c1ccc(Cl)cc1 | inactive: 4.7%
CCOC(=O)N1CCC(Nc2ccc(OC)cc2)CC1 | inactive: 23.3%
O=C(OC1CN2CCC1CC2)C1c2ccccc2Oc2ccccc21 (stereo unspecified) | inactive: 6.36%
N#CC1(Nc2ccccc2)CCN(Cc2ccccc2)CC1 | inactive: 2.84%
O=C(NCC1(N2CCOCC2)CCCCC1)c1cc2ccccc2o1 | inactive: -0.864%
Cc1cc(C)cc(N(C(=O)c2ccccc2)C2CCN(C(=O)OC(C)(C)C)CC2)c1 | inactive: 0.473%
CSc1ccccc1C(=O)NCC1(N2CCCCC2)CCCCC1 | inactive: -0.601%
O=C(NCC1(N2CCCCC2)CCCCC1)c1ccc(=O)[nH]c1 | inactive: 5.96%
COc1ccc(C(=O)NCC2(N3CCCCC3)CCCCC2)cc1 | inactive: -2.57%
CC(C)(C)OC(=O)N1CCC(N(C(=O)c2ccccc2)c2ccc(F)cc2)CC1 | inactive: 1.27%

Compound | activity change, negative = inhibition
COc1ccc(C(=O)NCC2(N3CCCCC3)CCCCC2)c(OC)c1OC | inactive: 2.97%
CCCCOc1ccccc1C(=O)NCC1(N2CCOCC2)CCCCC1 | inactive: 5.11%
CCCOc1ccc(C(=O)NCC2(N(C)C)CCCCC2)cc1OC | inactive: 13.7%
O=C(NCC1(N2CCOCC2)CCCCC1)c1ccccc1Br | inactive: 15.9%
COc1ccc2c(c1O)-c1c(O)c(OC)cc3c1[C@H](C2)[N+](C)(C)CC3.O=[N+]([O-])c1cc([N+](=O)[O-])c([O-])c([N+](=O)[O-])c1[O-] | inactive: -1%
O=C(OC1CN2CCC1CC2)c1ccc([N+](=O)[O-])cc1 (stereo unspecified) | inactive: 3.69%
COc1cc(OC)c(C(=O)NCC2(N(C)C)CCCCC2)cc1OC | inactive: 17.6%
COc1ccc(CN(CCCl)CCCl)cc1Cl | inactive: -0.454%
CN(C)c1cccc(C(=O)NCC2(N3CCCCC3)CCCCC2)c1 | inactive: -5.93%
O=[N+]([O-])c1cc([N+](=O)[O-])c(OC2CCCCC2O)c([N+](=O)[O-])c1 (stereo unspecified) | inactive: 1.79%
CC(C)c1ccc(NC2CCN(C(=O)OC(C)(C)C)CC2)cc1 | inactive: 1.56%
COc1ccc(NC2CCN(C(=O)OC(C)(C)C)CC2)cc1 | inactive: 0.487%
CN1CCN(CCOC(=O)C(O)(c2ccccc2)c2ccccc2)CC1 | inactive: 25.6%
O=C(NCC1(N2CCOCC2)CCCCC1)c1cc(=O)[nH]c2ccccc12 | inactive: 8.24%
COc1cc(C(=O)NCC2(N3CCCCC3)CCCCC2)ccc1OC(F)F | inactive: 91.4%
O=C(NCC1(N2CCCCC2)CCCCC1)c1cccc(C(F)(F)F)c1 | inactive: 18.8%
CCCOc1cccc(C(=O)NCC2(N3CCOCC3)CCCCC2)c1 | inactive: 25.2%
O=[N+]([O-])c1cc([N+](=O)[O-])c(NCC2CCS(=O)(=O)C2)c([N+](=O)[O-])c1 (stereo unspecified) | inactive: -10.1%
O=C(NCC1(N2CCCCC2)CCCCC1)c1cccc([N+](=O)[O-])c1 | inactive: 76.3%
CCOc1ccc(C(=O)NCC2(N3CCOCC3)CCCCC2)cc1 | inactive: 1.66%
CCN1CCC(Nc2ccc(Cl)cc2)CC1 | inactive: -0.232%
N#CC1(Nc2ccccc2)CCN(CCc2ccccc2)CC1 | inactive: -1.85%
O=C(NCC1(N2CCCCC2)CCCCC1)c1ccc(OC(F)F)cc1 | inactive: 22.8%
